Measurements: paper PMC9503009, “Determining Ligand and Ion-Induced Conformational Changes in Serotonin Transporter with Its Fluorescent Substrates” (International Journal of Molecular Sciences, 2022)

Columns and labels:
WT-SERT = WT-SERT (Rattus norvegicus, UniProt P31652); details: 25 μg/mL digitonin
Description: After 3 × rapid washing with KRH buffer, APP^+ or ASP^+ accumulation was measured as described under “Materials and Methods”. […] These representative images were parallelly acquired from one experiment. […] After 3 × washing, ASP^+ binding to the cell membrane was measured as described under “Materials and Methods”. […] (D) The effects of MTSET on ASP^+ binding of S277C/X5C and X5C. […] After 3 × rapid washing, ASP^+ binding was measured as described under “Materials and Methods”.
The cells stably expressing SERT-WT or mutants were wet mounted on polylysine-coated glass slides and applied for indicated treatments. In brief, the cells were washed twice with 500 μL KRH buffer containing 20 mM HEPES, pH 7.4, 120 mM NaCl, 1.3 mM KCl, 2.2 mM CaCl2, 1.2 mM MgSO4, and 0.1% (w/v) glucose. APP^+ or ASP^+ accumulation was measured by adding 500 μL KRH buffer containing 2 μM APP^+ or 10 μM ASP^+ and incubating for 5 min at 22 °C. […] The extent of APP^+ or ASP^+ accumulated in the cells was determined with confocal imaging analysis.
Images were acquired at 22 °C using a 20 or 60 × water immersion objective with the Zeiss LSM 900 confocal microscope. […] APP^+ fluorescence was captured at 490–565 nm and ASP^+ fluorescence at 600–650 nm. Images were analyzed using National Institutes of Health ImageJ v1.53q. Fluorescence intensity in each cell was counted and normalized to the cell area (mean fluorescence). […]

SERT Y107C/C109A = biological target: T1, SERT Y107C/C109A (Rattus norvegicus, UniProt P31652, C109A/Y107C); assay: MTSET inhibition of APP+ uptake in live cells (extracellular pathway cysteine accessibility); assay type: cell-based; details: MTSET 0.01 mM, ligand 10 μM, 22 °C, 15 min
T1 construct: expressed in transfected cells
Description: (§1) Figure 3 Reactivity of the extracellular cysteine mutants with MTSET. (A) MTSET concentration-dependent inhibition of APP^+ uptake. The cells stably expressing C109A, Y107C/C109C, or S404C/C109A were incubated for 15 min with indicated concentrations of MTSET. The MTSET concentration giving half-maximal inhibition of APP^+ accumulation in the cells was used to calculate inactivation rate constants as plotted in (B). […] Representative images of APP^+ uptake by C109A, Y107C/C109A, or S404C/C109A under various MTSET concentrations were shown in Supplemental Figure S1. […] (B) Rate constants of MTSET inhibition of APP^+ uptake. At the half-maximal concentration, the half-time is the assay time (15 min) and the first-order rate constant is 7.7 × 10^−4 s^−1. […]
(A) MTSET concentration-dependent inhibition of APP^+ uptake. […] After washing to remove excess MTSET and ligands, APP^+ uptake was measured as described under “Materials and Methods”. […]
The cells stably expressing Y107C/C109A or S404C/C109A were preincubated with indicated ligands and MTSET at a concentration of 0.01 mM for Y107C/C109A or 0.002 mM for S404C/C109A at 22 °C for 15 min, respectively. […] APP^+ uptake was measured as described under “Materials and Methods”. […] Asterisks and hashtags indicate statistically significant changes (p < 0.05) in the accumulated APP^+ fluorescence compared with the corresponding control (MTSET alone). […]

SERT S404C/C109A = biological target: T2, SERT S404C/C109A (Rattus norvegicus, UniProt P31652, C109A/S404C); assay: as above; assay type: cell-based; details: MTSET 0.002 mM, ligand 10 μM, 22 °C, 15 min
T2 construct: expressed in transfected cells
Description: as §1, with “uptake.” for “uptake. At the half-maximal concentration, the half-time is the assay time (15 min) and the first-order rate constant is 7.7 × 10^−4 s^−1.”
The cells stably expressing Y107C/C109A or S404C/C109A were preincubated with indicated ligands and MTSET at a concentration of 0.01 mM for Y107C/C109A or 0.002 mM for S404C/C109A at 22 °C for 15 min, respectively. […] APP^+ uptake was measured as described under “Materials and Methods”. […] Asterisks and hashtags indicate statistically significant changes (p < 0.05) in the accumulated APP^+ fluorescence compared with the corresponding control (MTSET alone).
Accessibility of the cysteine residues in the extracellular pathway was measured by reactivity of Y107C/C109A and S404C/C109A mutants with MTSET. […] The extent of APP^+ accumulated in the cells was determined by confocal imaging analysis in the live cells. […]

| Structure (SMILES) | APP+ fluorescence in the cells (WT-SERT; 2 μM APP+) | ASP+ fluorescence retained in the cells (WT-SERT; 10 μM ASP+) | effect of ligand on reactivity with MTSET (SERT Y107C/C109A) | effect of ligand on reactivity with MTSET (SERT S404C/C109A) |
| --- | --- | --- | --- | --- |
| C[C@@H]1CC[C@@]2(OC1)O[C@H]1[C@@H](O)[C@H]3[C@@H]4CC[C@H]5C[C@@H](O[C@@H]6O[C@H](CO)[C@H](O[C@@H]7O[C@H](CO)[C@@H](O)[C@H](O[C@@H]8OC[C@@H](O)[C@H](O)[C@H]8O)[C@H]7O[C@@H]7O[C@H](CO)[C@H](O)[C@H](O[C@@H]8O[C@H](CO)[C@@H](O)[C@H](O)[C@H]8O)[C@H]7O)[C@H](O)[C@H]6O)[C@H](O)C[C@]5(C)[C@H]4CC[C@]3(C)[C@H]1[C@@H]2C [digitonin] | only a trace of APP^+ fluorescence detected | more than 60% | – | – |
| Fc1ccc([C@@H]2CCNC[C@H]2COc2ccc3c(c2)OCO3)cc1 [paroxetine] | – | – | markedly increased the reactivity | markedly increased the reactivity |
